Three molecules from PubChem BioAssay (NCATS) can be followed below.

Molecules are shown by their SMILES. Values joined by “and” are separate entries in the source; they are usually repeats but may differ in a detail not shown here. Equal values may be shown once. The entries are a selection whose mix differs from that of the whole data set. Results filed as inconclusive are left out. Active and inactive are the calls of the source. The call rests on the fitted dose curve; in most records, active means well fitted curve in the direction sought with a large enough effect; inconclusive means small, poorly fitted or top-dose-only effect, or another doubt; inactive means no such curve, though single readings can be large; an effect the other way counts as inactive or inconclusive.

A short description of assay [1]: qHTS of pediatric cancer cell lines to identify multiple opportunities for drug repurposing: Primary screen for NB1643 cells (AID 1347099).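 Further: plate controls were DMSO neutral control for no effect and bortezomib positive control for full effect; nearly all actives have a fitted effect of over 50% in size.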 As to conditions: NB1643 neuroblastoma viability, CellTiter-Glo luminescence, 48 h; at 92.7 µM (top of the series). In general terms: In qHTS, concentration-response curves come from the screen itself.
Assay [2] in a line: qHTS of pediatric cancer cell lines to identify multiple opportunities for drug repurposing: Primary screen for LAN-5 cells (AID 1347100).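 Further: plate controls were DMSO neutral control for no effect and bortezomib positive control for full effect.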 The settings on record: LAN-5 neuroblastoma viability, CellTiter-Glo luminescence, 48 h; at 92.7 µM (top of the series). In outline:
(§1)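 Cells (500-1,000/well) rested 5 h, then received compounds for 48 h; metabolically active cells were measured by CellTiter-Glo luminescence. Final concentrations spanned up to 46 µM (MIPE, 11-point) or 0.59 nM-46 µM (NPC, 8-point) in primary screens, 11-point in follow-ups.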

Assay [3] can be described thus: qHTS of pediatric cancer cell lines to identify multiple opportunities for drug repurposing: Primary screen for Rh18 cells (AID 1347102). Further: on the % scale 0 is the no-effect control and ±100 the full control effect; nearly all actives have a fitted effect of over 65% in size. As to conditions: Rh18 rhabdomyosarcoma viability, CellTiter-Glo luminescence, 48 h; at 92.7 µM (top of the series) unless noted. In outline: as §1
Assay [4] in a line: qHTS of pediatric cancer cell lines to identify multiple opportunities for drug repurposing: Primary screen for OHS-50 cells (AID 1347103). Further: potency means the concentration at half of the fitted maximal effect; nearly all actives have a fitted effect of over 40% in size. As to conditions: OHS-50 osteosarcoma viability, CellTiter-Glo luminescence, 48 h. The gist of the method: as §1
Assay [5] in a line: qHTS of pediatric cancer cell lines to identify multiple opportunities for drug repurposing: Primary screen for control Hh wild type fibroblast cells (AID 1347106).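 Further: on the % scale 0 is the no-effect control and ±100 the full control effect; a drop in luminescence marks cytotoxicity and a rise apparent proliferation; nearly all actives have a fitted effect of over 55% in size.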 The settings on record: Hh wild-type fibroblast viability, CellTiter-Glo luminescence, 48 h; at 92.7 µM (top of the series) unless noted. From the text: (§2) Drug repurposing or repositioning has been offered as a strategy for drug development in oncology programs. This approach has special potential for childhood cancers and other rare or orphan diseases, where the expected return on new drug development has been a disincentive to pharmaceuticals.
(§3) In this project we exploit the poly-pharmacology of drugs to discover new indications via phenotypic screening of a panel of 19 well-characterized cell lines derived from solid tumors seen in children and adolescents. The goal is to identify approved drugs with previously unrecognized anticancer properties that has the potential to reveal new mechanisms and biological processes involved in carcinogenesis or drug resistance. We employed a titration-based paradigm (quantitative high-throughput screening or qHTS), where all compounds were tested at multiple concentrations for their effect on cell viability. Concentration-response curves (CRCs) were derived directly from the primary screen, and both potency and efficacy values were used to identify compounds with robust bioactivity profiles. We screened the NIH Chemical Genomics Center (NCGC) Pharmaceutical Collection (NPC) and Mechanism Interrogation Plate (MIPE) small molecule collections of approved and investigational compounds against these cell lines; and measured metabolically active cells after 48 hours of compound treatment as a proxy for cell viability.
Assay Submitter: Nathalia J. Martinez, National Center for Advancing Translational Sciences, National Institutes of Health, Rockville, MD, USA; email: natalia.martinez@nih.gov
[1] Shen, M et al. Quantitative high-throughput phenotypic screening of pediatric cancer cell lines identifies multiple opportunities for drug repurposing. Oncotarget 2017 Dec 19;9(4):4758-4772. PMID 29435139. […]
Cells were assayed in growth media at a density of 500-1,000 cells/well. […] After a 15 min incubation at room temperature, samples were analyzed for luminescence intensity using a ViewLux High-throughput CCD imager equipped with clear filters.

Assay [6] can be described thus: qHTS of pediatric cancer cell lines to identify multiple opportunities for drug repurposing: Primary screen for Rh30 cells (AID 1347107). Further: on the % scale 0 is the no-effect control and ±100 the full control effect; nearly all actives have a fitted effect of over 75% in size. The settings on record: Rh30 rhabdomyosarcoma viability, CellTiter-Glo luminescence, 48 h; at 92.7 µM (top of the series) unless noted. In outline: as §1
Assay [7] is described as follows: qHTS of pediatric cancer cell lines to identify multiple opportunities for drug repurposing: Primary screen for SK-N-SH cells (AID 1347098).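 Further: DMSO served as neutral control and bortezomib at 2.3 µM as positive control; on the % scale 0 is the no-effect control and ±100 the full control effect; nearly all actives have a fitted effect of over 65% in size.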 The settings on record: SK-N-SH viability, CellTiter-Glo luminescence, 48 h; at 57 µM (top of the series) unless noted.
Text: as §2
as §3, with “viability. […]” for “viability. Concentration-response curves (CRCs) were derived directly from the primary screen, and both potency and efficacy values were used to identify compounds with robust bioactivity profiles.”, “viability. […]” for “viability.”
[1] Shen, M et al. Quantitative high-throughput phenotypic screening of pediatric cancer cell lines identifies multiple opportunities for drug repurposing. […]

A short description of assay [8]: qHTS of pediatric cancer cell lines to identify multiple opportunities for drug repurposing: Primary screen for BT-12 cells (AID 1347101).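 Further: plate controls were DMSO for no effect and bortezomib positive control for full effect; nearly all actives have a fitted effect of over 25% in size.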 As to conditions: BT-12 viability, CellTiter-Glo luminescence, 48 h; at 57.3 µM (top of the series) unless noted. In outline:
as §1

Assay [9] in a line: qHTS of pediatric cancer cell lines to identify multiple opportunities for drug repurposing: Primary screen for MG 63 (6-TG R) cells (AID 1347105). Further: on the % scale 0 is the no-effect control and ±100 the full control effect; nearly all actives have a fitted effect of over 50% in size. As to conditions: MG 63 (6-TG R) viability, CellTiter-Glo, 48 h; at 46 µM (top of the series) unless noted. In outline:
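CRCs from 8- or 11-point titrations (lowest final 0.59 nM NPC, 0.78 nM MIPE). Cell viability: CellTiter-Glo after 48 h incubation, 15 min room-temperature development, luminescence imaging.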

Assay [10] can be described thus: qHTS of pediatric cancer cell lines to identify multiple opportunities for drug repurposing: Primary screen for RD cells (AID 1347104).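 Further: plate controls were DMSO for no effect and bortezomib for full effect; nearly all actives have a fitted effect of over 55% in size.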 The settings on record: RD rhabdomyosarcoma viability, CellTiter-Glo luminescence, 48 h; at 92.7 µM (top of the series). From the text:
Drug repurposing or repositioning has been offered as a strategy for drug development in oncology programs. This approach has special potential for childhood cancers and other rare or orphan diseases, where the expected return on new drug development has been a disincentive to pharmaceuticals. […] In this project we exploit the poly-pharmacology of drugs to discover new indications via phenotypic screening of a panel of 19 well-characterized cell lines derived from solid tumors seen in children and adolescents. […] We employed a titration-based paradigm (quantitative high-throughput screening or qHTS), where all compounds were tested at multiple concentrations for their effect on cell viability. […] We screened the NIH Chemical Genomics Center (NCGC) Pharmaceutical Collection (NPC) and Mechanism Interrogation Plate (MIPE) small molecule collections of approved and investigational compounds against these cell lines; and measured metabolically active cells after 48 hours of compound treatment as a proxy for cell viability. […] Assay Submitter: Nathalia J. Martinez, National Center for Advancing Translational Sciences, National Institutes of Health, Rockville, MD, USA; email: natalia.martinez@nih.gov Shen, M et al. Quantitative high-throughput phenotypic screening of pediatric cancer cell lines identifies multiple opportunities for drug repurposing. […]

On to `CCC(=O)N(c1ccccc1)C1(COC)CCN(CCc2cccs2)CC1`, for which the activity change, negative = cytotoxic was inactive: -13.3% in assay [1]; inactive: -15.5% in assay [2]; inactive: -15.6% in assay [3]; inactive: 18.2% in [5]; inactive: 3.37% in assay [6]. For the same molecule, in assay [4], the Potency is active: 44.7 µM.

For the molecule `CN(CCCl)CCCl`, the activity change, negative = cytotoxic in assay [7] was inactive: 3.31%; in assay [8] it was inactive: -15.3% and inactive: 12.5%; in [3], inactive: 1.11% [at 46 µM] and inactive: 6.05% [at 46 µM]; in [9], inactive: -28% and inactive: 8.74%; in assay [5], inactive: 9.42% [at 46 µM] and inactive: 11.4% [at 46 µM]; in assay [6], inactive: -3.52% [at 46 µM] and inactive: 10.2% [at 46 µM].

Take `CCC(=O)N(c1ccccc1)C1(COC)CCN(CCn2nnn(CC)c2=O)CC1`: the activity change, negative = cytotoxic in [7] was inactive: -9.61% [at 115 µM]; in assay [1], inactive: 0%; in [2], inactive: -25.7%; in [8], inactive: -1.18% [at 116 µM]; in assay [3] it was inactive: 2.13%; in assay [10], inactive: -8.1%. Besides, the results for the activity change, negative = cytotoxic in assay [9], in [5] and in [6] were inactive: -39.1% [at 92.7 µM], inactive: 13.7% and inactive: -4.5%, respectively.
